Data set [1] in a line: Stability of the ferritin-doxorubicin complexes (% drug release over time, SEC). The data set is classed as physicochemical. The settings on record: stored at 4° C. or 37° C.; compared to the native HFt construct; FIG. 10. Here is the method: The stability of the ferritin-Doxorubicin complexes was tested at 4° C. and 37° C. in terms of % drug release over time. The % of doxorubicin released was assessed by size exclusion chromatography (SEC) by using a gel filtration Superose 6 column equilibrated with phosphate-buffered saline (PBS) at pH 7.5. All samples were prepared at 1 mg/mL in filtered PBS, following the absorbance at 280 and 485 nm.

The conditions of data set [2]: injected through the systemic route; cited from earlier work.

As for “native HFt: Heavy chain of human ferritin, native sequence (SEQ ID NO: 1), forming 24-subunit nanoparticle”, the “stability of the drug-bound form (% drug released over time)” value in data set [1] was “the material tended to become cloudy and precipitate”. In addition, the plasma half-life in data set [2] is 2 to 3 h.
